Reference: publication PMC12627723, “Antineoplastic 4-piperidone-1-phosphonothioates with potential multi-targeted inhibitory properties” (Scientific Reports, 2025)

Chains of the proteins cited; added tags and fusions are not shown.
UniProt Q00987, whole entry, looked up: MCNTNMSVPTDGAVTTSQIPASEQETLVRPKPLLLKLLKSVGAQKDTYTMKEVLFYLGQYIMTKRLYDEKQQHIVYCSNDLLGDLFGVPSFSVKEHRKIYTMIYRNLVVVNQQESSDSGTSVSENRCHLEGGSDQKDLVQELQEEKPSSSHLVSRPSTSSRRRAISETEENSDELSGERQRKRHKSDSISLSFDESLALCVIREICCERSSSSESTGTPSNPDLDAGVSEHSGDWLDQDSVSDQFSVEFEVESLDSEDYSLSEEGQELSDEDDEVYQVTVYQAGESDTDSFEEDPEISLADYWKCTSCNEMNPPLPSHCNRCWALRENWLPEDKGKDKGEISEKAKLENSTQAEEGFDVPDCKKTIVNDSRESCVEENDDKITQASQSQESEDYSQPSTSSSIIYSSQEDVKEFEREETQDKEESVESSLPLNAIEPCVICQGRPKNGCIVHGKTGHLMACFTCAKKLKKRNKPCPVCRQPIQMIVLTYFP

Key:
[1] = system: topo-I; settings: read-out: IC50 of Dxd, topo-I inhibitor; reference standard; cited from earlier work
[2] = system: MCF7 (breast) cancer cell line; test: MTT antiproliferation, MCF7; settings: for Selectivity index (SI), MCF7: SI = IC50 of RPE1/IC50 of MCF7; for IC50: read-out: IC50, (µM) ± SEM, MCF7, MTT, 72 h
[3] = system: A431 (skin/squamous) cancer cell line; test: MTT antiproliferation, A431; settings: for Selectivity index (SI), A431: SI = IC50 of RPE1/IC50 of A431; for IC50: read-out: IC50, (µM) ± SEM, A431, MTT, 72 h
[4] = system: HCT116 (colon) cancer cell line; test: MTT antiproliferation, HCT116; settings: for Selectivity index (SI), HCT116: SI = IC50 of RPE1/IC50 of HCT116; for IC50: read-out: IC50, (µM) ± SEM, HCT116, MTT, 72 h
[5] = system: RPE1 (normal human immortalized retinal pigment epithelial cell line); test: MTT toxicity/selectivity, normal RPE1 cells; settings: read-out: IC50, (µM) ± SEM, RPE1
[6] = system: p53; test: p53 level/activation (ELISA) in MCF7; settings: ratio of % activation
[7] = biological target: MDM2 (Homo sapiens, UniProt Q00987); test: MDM2 level/inhibition (ELISA) in MCF7; settings: ratio of % inhibition

| SMILES | IC50 [1] | Selectivity index (SI), MCF7 [2] | IC50 [2] | Selectivity index (SI), A431 [3] | IC50 [3] | Selectivity index (SI), HCT116 [4] | IC50 [4] | IC50 [5] | Potency fold relative to 5-fluorouracil, A431 ([3]; ratio of IC50 values) | p53 activation fold relative to doxorubicin [6] | Anti-MDM2 potency fold relative to doxorubicin [7] | Effectiveness fold relative to 5-fluorouracil, MCF7 ([2]; ratio of IC50 values) | Effectiveness fold relative to sunitinib, MCF7 ([2]; ratio of IC50 values) | Potency fold relative to 5-fluorouracil, HCT116 ([4]; ratio of IC50 values) | Potency fold relative to sunitinib, HCT116 ([4]; ratio of IC50 values) |
| --- | --- | --- | --- | --- | --- | --- | --- | --- | --- | --- | --- | --- | --- | --- | --- |
| CC[C@@]1(O)C(=O)OCc2c1cc1n(c2=O)Cc2c-1nc1cc(F)c(C)c3c1c2[C@@H](NC(=O)CO)CC3 | 0.4 µM | – | – | – | – | – | – | – | – | – | – | – | – | – | – |
| CCOP(=S)(OCC)N1C/C(=C\c2ccccc2)C(=O)/C(=C/c2ccccc2)C1 | – | 1.59 | 2.71 µM | 0.27 | 16 µM | 2.06 | 2.09 µM | 4.31 µM | – | – | – | – | – | – | – |
| CCOP(=S)(OCC)N1C/C(=C\c2ccc(Br)cc2)C(=O)/C(=C/c2ccc(Br)cc2)C1 | – | 1.97 | 1.21 µM | 1.23 | 1.93 µM | 1.49 | 1.6 µM | 2.38 µM | – | – | – | – | – | – | – |
| CCOP(=S)(OCC)N1C/C(=C\c2ccc(C)cc2)C(=O)/C(=C/c2ccc(C)cc2)C1 | – | > 10.9 | 2.29 µM | > 4.79 | 5.22 µM | > 11 | 2.28 µM | > 25 µM | – | – | – | – | – | – | – |
| CCOP(=S)(OCC)N1C/C(=C\c2cc(OC)c(OC)c(OC)c2)C(=O)/C(=C/c2cc(OC)c(OC)c(OC)c2)C1 | – | 1.95 | 1.08 µM | 1.93 | 1.1 µM | 1.09 | 1.94 µM | 2.11 µM | 21 fold | 1.5 fold | 1.55 fold | – | – | – | – |
| CCOP(=S)(OCC)N1C/C(=C\c2ccccc2OC)C(=O)/C(=C/c2ccccc2OC)C1 | – | 2.46 | 4.19 µM | 3.94 | 2.61 µM | 4.57 | 2.25 µM | 10.3 µM | – | – | – | – | – | – | – |
| CCOP(=S)(OCC)N1C/C(=C\c2ccc(F)cc2)C(=O)/C(=C/c2ccc(F)cc2)C1 | – | 4.21 | 1.76 µM | 1.38 | 5.36 µM | 4.58 | 1.62 µM | 7.4 µM | – | – | – | – | – | – | – |
| CCOP(=S)(OCC)N1C/C(=C\c2ccc(Cl)cc2)C(=O)/C(=C/c2ccc(Cl)cc2)C1 | – | 1.93 | 1.27 µM | 1.31 | 1.87 µM | 1.66 | 1.48 µM | 2.46 µM | – | – | – | – | – | – | – |
| CCOP(=S)(OCC)N1C/C(=C\c2cccs2)C(=O)/C(=C/c2cccs2)C1 | – | – | > 25 µM | – | > 25 µM | – | > 25 µM | > 25 µM | – | – | – | – | – | – | – |
| CCOP(=S)(OCC)N1C/C(=C\c2ccc(OC)c(OC)c2)C(=O)/C(=C/c2ccc(OC)c(OC)c2)C1 | – | 1.06 | 1.48 µM | 1 | 1.57 µM | 1.08 | 1.46 µM | 1.58 µM | – | – | – | – | – | – | – |
| CCOP(=S)(OCC)N1C/C(=C\c2cccc(Cl)c2)C(=O)/C(=C/c2cccc(Cl)c2)C1 | – | 4.7 | 0.65 µM | 1.05 | 2.92 µM | 2.12 | 1.45 µM | 3.06 µM | – | – | – | 4.8 fold | 6.1 fold | 14 fold | 6.7 fold |
| CCOP(=S)(OCC)N1C/C(=C\c2ccc(OC)cc2)C(=O)/C(=C/c2ccc(OC)cc2)C1 | – | > 2.22 | 11.3 µM | – | > 25 µM | – | > 25 µM | > 25 µM | – | – | – | – | – | – | – |
| CCOP(=S)(OCC)N1C/C(=C\c2cccc(OC)c2)C(=O)/C(=C/c2cccc(OC)c2)C1 | – | 2.01 | 1.58 µM | 1.08 | 2.94 µM | 1.83 | 1.74 µM | 3.18 µM | – | – | – | – | – | – | – |
